US9242993B2, “Morpholino substituted bicyclic pyrimidine urea or carbamate derivatives as mTOR inhibitors” (CELLZOME LIMITED, priority 2011, dated 2016)

Amino acid sequences for entries named in this document (tags omitted). A change or cut given only in a name is not applied to a line headed by its entry.
UniProt P48736: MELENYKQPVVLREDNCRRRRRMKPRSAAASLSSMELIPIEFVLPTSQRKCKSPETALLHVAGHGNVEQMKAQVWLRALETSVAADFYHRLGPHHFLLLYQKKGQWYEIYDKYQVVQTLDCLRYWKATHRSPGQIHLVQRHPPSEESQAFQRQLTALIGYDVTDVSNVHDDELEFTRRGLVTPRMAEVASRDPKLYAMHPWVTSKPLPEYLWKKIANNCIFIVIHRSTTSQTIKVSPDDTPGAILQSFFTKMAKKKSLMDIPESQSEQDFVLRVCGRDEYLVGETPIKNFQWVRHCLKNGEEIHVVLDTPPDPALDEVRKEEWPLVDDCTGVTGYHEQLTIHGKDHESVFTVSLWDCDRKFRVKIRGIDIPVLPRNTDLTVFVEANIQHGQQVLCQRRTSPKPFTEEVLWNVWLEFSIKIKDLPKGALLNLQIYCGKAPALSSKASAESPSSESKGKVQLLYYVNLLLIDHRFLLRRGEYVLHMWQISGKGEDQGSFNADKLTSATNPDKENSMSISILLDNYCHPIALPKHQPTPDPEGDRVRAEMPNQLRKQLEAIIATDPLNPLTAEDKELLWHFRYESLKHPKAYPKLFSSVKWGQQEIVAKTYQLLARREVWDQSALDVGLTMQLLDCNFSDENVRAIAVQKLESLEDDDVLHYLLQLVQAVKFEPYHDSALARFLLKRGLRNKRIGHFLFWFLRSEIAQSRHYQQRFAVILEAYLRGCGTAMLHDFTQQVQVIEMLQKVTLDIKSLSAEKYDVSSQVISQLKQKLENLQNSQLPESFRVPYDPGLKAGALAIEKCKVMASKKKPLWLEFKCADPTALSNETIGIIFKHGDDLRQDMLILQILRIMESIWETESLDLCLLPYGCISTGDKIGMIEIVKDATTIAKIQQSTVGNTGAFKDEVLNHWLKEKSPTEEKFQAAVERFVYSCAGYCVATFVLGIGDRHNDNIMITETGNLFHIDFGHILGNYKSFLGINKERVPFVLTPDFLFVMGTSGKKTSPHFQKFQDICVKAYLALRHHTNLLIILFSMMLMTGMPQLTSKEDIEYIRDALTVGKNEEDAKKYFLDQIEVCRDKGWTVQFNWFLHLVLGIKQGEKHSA
UniProt P42336, whole entry: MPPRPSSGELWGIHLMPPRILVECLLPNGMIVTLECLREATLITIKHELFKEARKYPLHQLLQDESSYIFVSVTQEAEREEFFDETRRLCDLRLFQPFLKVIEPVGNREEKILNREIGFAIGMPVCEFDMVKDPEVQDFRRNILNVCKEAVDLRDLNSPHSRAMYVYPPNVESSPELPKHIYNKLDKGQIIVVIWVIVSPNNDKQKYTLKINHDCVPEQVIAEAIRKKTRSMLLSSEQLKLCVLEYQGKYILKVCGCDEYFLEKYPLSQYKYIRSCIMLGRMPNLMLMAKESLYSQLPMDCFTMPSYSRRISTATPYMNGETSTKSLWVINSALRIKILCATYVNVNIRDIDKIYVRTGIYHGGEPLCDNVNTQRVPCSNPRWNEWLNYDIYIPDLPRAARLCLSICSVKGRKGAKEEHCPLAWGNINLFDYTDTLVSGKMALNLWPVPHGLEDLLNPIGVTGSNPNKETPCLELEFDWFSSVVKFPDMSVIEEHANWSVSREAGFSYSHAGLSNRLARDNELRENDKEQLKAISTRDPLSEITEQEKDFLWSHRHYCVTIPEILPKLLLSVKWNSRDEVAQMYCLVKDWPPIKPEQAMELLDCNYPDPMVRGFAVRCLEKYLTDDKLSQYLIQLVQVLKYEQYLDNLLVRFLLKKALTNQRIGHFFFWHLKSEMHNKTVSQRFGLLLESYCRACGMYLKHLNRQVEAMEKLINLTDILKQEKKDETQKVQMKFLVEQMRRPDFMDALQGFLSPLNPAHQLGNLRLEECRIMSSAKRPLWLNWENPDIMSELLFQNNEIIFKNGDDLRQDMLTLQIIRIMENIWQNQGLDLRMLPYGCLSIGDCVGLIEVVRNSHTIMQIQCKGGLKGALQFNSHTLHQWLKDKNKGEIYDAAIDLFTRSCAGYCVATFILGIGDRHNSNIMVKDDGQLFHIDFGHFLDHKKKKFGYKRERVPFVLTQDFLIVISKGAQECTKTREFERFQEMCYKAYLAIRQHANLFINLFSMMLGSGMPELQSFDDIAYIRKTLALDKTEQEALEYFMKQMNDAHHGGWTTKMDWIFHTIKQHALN
UniProt P42338: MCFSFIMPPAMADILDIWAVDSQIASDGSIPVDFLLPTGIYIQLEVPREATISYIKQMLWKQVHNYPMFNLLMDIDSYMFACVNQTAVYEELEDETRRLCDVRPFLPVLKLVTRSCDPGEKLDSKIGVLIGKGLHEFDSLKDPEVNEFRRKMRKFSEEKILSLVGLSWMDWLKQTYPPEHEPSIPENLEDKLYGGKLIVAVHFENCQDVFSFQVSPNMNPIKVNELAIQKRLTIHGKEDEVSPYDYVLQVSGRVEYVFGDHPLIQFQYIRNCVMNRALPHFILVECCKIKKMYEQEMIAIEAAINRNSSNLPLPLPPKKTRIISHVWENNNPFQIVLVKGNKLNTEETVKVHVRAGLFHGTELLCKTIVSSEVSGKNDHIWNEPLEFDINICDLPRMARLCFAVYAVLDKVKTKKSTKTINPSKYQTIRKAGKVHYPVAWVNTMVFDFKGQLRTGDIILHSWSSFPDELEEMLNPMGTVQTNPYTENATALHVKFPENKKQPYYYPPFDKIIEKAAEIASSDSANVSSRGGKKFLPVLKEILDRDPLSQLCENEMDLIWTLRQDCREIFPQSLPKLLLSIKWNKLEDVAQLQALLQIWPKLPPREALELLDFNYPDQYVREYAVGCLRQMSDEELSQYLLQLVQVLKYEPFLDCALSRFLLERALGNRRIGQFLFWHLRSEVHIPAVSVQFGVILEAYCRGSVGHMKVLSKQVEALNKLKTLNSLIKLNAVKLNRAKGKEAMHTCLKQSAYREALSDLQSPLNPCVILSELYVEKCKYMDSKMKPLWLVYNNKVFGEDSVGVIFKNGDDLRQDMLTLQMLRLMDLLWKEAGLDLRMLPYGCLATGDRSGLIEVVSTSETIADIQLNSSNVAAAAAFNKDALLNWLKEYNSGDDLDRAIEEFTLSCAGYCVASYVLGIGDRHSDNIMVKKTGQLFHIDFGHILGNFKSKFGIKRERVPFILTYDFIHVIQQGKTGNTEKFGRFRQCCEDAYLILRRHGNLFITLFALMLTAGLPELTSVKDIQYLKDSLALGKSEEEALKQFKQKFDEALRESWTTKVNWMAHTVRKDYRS
UniProt O00329: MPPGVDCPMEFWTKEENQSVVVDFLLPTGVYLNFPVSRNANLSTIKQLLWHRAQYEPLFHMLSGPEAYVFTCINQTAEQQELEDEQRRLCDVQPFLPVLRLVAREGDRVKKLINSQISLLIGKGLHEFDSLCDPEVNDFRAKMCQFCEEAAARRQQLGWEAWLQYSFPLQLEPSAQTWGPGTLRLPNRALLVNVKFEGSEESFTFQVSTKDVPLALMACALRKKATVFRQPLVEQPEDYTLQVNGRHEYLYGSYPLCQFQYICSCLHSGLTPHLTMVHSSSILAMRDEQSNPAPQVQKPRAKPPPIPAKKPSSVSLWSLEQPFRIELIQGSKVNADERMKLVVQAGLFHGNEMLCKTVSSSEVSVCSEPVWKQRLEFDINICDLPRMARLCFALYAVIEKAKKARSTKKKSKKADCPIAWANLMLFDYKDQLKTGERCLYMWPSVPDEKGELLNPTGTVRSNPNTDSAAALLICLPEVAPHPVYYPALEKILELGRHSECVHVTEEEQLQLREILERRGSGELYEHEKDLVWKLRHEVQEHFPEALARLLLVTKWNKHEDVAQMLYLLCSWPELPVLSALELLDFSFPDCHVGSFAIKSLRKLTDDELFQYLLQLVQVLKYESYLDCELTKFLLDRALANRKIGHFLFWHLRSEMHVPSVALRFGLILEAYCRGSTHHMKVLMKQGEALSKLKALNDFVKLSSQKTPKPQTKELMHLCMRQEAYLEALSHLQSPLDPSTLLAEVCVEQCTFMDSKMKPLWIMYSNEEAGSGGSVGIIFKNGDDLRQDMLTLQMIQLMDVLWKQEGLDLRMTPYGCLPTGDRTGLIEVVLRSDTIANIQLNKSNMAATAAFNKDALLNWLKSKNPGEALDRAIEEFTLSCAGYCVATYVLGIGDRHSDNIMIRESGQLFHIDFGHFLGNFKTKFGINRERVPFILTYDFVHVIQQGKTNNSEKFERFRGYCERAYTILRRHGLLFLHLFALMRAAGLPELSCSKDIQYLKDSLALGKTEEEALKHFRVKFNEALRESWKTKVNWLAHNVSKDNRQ

Columns and labels:
Format in all cases: binding
[1] = molecular target: PI3K gamma (PI3 Kg) (Homo sapiens, UniProt P48736); assay: kinobeads assay, PI3K gamma; conditions: Jurkat cell lysate, read-out: PI3Kg inhibition value (IC50), activity level
[2] = molecular target: PI3K alpha (PI3Ka) (Homo sapiens, UniProt P42336); assay: kinobeads assay, PI3K alpha; conditions: Jurkat cell lysate, read-out: PI3Ka inhibition value (IC50), activity level
[3] = molecular target: PI3K beta (PI3 Kb) (Homo sapiens, UniProt P42338); assay: kinobeads assay, PI3K beta; conditions: Jurkat cell lysate, read-out: PI3Kb inhibition value (IC50), activity level
[4] = molecular target: PI3K delta (PI3 Kd) (Homo sapiens, UniProt O00329); assay: kinobeads assay, PI3K delta; conditions: Jurkat cell lysate, read-out: PI3Kd inhibition value (IC50), activity level

Structure (SMILES)	IC50 [1] [µM]	IC50 [2] [µM]	IC50 [3] [µM]	IC50 [4] [µM]
C[C@H]1COCCN1c1nc(-c2ccc(NC(=O)NCCF)cc2)nc2c1CS(=O)(=O)C2 [Example 14, (S)-1-(2-fluoroethyl)-3-(4-(4-(3-methylmorpholino)-6,6-dioxido-5,7-dihydrothieno[3,4-d]pyrimidin-2-yl)phenyl)urea]	> 10	> 10	> 10	> 10
CC1c2c(nc(-c3ccc(NC(=O)NC4CC4)cc3)nc2N2CCOC[C@@H]2C)CCS1(=O)=O (stereo partly drawn) [Example 74, 1-cyclopropyl-3-(4-(5-methyl-4-((S)-3-methylmorpholino)-6,6-dioxido-7,8-dihydro-5H-thiopyrano[4,3-d]pyrimidin-2-yl)phenyl)urea]	> 10	> 10	> 10	> 10
C[C@H]1COCCN1c1nc(-c2ccc(NC(=O)NC3CC3)cc2)nc2c1S(=O)(=O)C(C)(C)C2 [Example 37, (S)-1-cyclopropyl-3-(4-(6,6-dimethyl-4-(3-methylmorpholino)-5,5-dioxido-6,7-dihydrothieno[3,2-d]pyrimidin-2-yl)phenyl)urea]	> 10	> 10	> 10	> 10
CNC(=O)Nc1ccc(-c2nc3c(c(N4CCOC[C@@H]4C)n2)C(C)S(=O)(=O)C3)cc1 (stereo partly drawn) [Example 58, 1-methyl-3-(4-(5-methyl-4-((S)-3-methylmorpholino)-6,6-dioxido-5,7-dihydrothieno[3,4-d]pyrimidin-2-yl)phenyl)urea]	> 10	> 10	> 10	> 10
CCNC(=O)Nc1ccc(-c2nc3c(c(N4CCOC[C@@H]4CC)n2)[C@@H](C)S(=O)(=O)C3)cc1 [Example 52, 1-ethyl-3-(4-((R)-4-((S)-3-ethylmorpholino)-5-methyl-6,6-dioxido-5,7-dihydrothieno[3,4-d]pyrimidin-2-yl)phenyl)urea]	> 10	> 10	> 10	> 10
CC[C@H]1COCCN1c1nc(-c2ccc(NC(=O)NC3CC3)cc2)nc2c1CS(=O)(=O)C2(C)C [Example 51, (S)-1-cyclopropyl-3-(4-(4-(3-ethylmorpholino)-7,7-dimethyl-6,6-dioxido-5,7-dihydrothieno[3,4-d]pyrimidin-2-yl)phenyl)urea]	> 10	> 10	> 10	> 10
CC1c2nc(-c3ccc(NC(=O)NC4CC4)cc3)nc(N3CCOC[C@@H]3C)c2C(C)S1(=O)=O (stereo partly drawn) [Example 44, 1-cyclopropyl-3-(4-(5,7-dimethyl-4-((S)-3-methylmorpholino)-6,6-dioxido-5,7-dihydrothieno[3,4-d]pyrimidin-2-yl)phenyl)urea]	> 10	1 to 10	> 10	> 10
C[C@@H]1COCCN1c1nc(-c2ccc(NC(=O)NC3CC3)cc2)nc2c1CS(=O)(=O)C2 [Example 17, (R)-1-cyclopropyl-3-(4-(4-(3-methylmorpholino)-6,6-dioxido-5,7-dihydrothieno[3,4-d]pyrimidin-2-yl)phenyl)urea]	> 10	> 10	> 10	> 10
C[C@H]1COCCN1c1nc(-c2ccc(NC(=O)NC3CC3)cc2)nc2c1CS(=O)(=O)C2(C)C [Example 30, (S)-1-cyclopropyl-3-(4-(7,7-dimethyl-4-(3-methylmorpholino)-6,6-dioxido-5,7-dihydrothieno[3,4-d]pyrimidin-2-yl)phenyl)urea]	> 10	> 10	> 10	> 10
C[C@H]1COCCN1c1nc(-c2ccc(NC(=O)NC3COC3)cc2)nc2c1CS(=O)(=O)C2(C)C [Example 68, (S)-1-(4-(7,7-dimethyl-4-(3-methylmorpholino)-6,6-dioxido-5,7-dihydrothieno[3,4-d]pyrimidin-2-yl)phenyl)-3-(oxetan-3-yl)urea]	> 10	> 10	> 10	> 10
